The values that follow are results of earlier work, collected in patent publication US20110152382A1, “Composition of molecular elements for phosphorylase kinase inhibition” (priority 2009, published 2011).

The conditions of series [1]: metabolites of oral curcumin.

Regarding curcumin glucuronate, the water solubility entry is “water soluble”. Besides, the “absorption of metabolites into the blood stream” value in series [1] is “absorbed into the blood stream”.
